Test results reported in patent US20260234107A1, “T[…] METHODS OF TREATING MOOD DISORDERS” (priority 2022, published 2026).
pEC50, pKi: −log10 of the molar value.

Protein sequences, listed by entry. Tags and fused reporters are not part of them.
UniProt P28223, whole entry: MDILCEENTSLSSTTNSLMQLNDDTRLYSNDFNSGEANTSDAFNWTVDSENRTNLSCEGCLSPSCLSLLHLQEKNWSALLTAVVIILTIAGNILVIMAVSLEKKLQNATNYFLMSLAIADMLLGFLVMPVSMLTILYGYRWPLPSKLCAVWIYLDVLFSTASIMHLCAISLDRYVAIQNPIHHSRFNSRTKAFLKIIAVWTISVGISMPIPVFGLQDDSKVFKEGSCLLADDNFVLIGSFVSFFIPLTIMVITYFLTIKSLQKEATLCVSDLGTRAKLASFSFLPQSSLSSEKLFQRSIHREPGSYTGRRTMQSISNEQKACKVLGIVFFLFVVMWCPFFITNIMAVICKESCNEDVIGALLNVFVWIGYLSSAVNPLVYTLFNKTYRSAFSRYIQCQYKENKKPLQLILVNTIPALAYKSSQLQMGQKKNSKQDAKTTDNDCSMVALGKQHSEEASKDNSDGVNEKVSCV
UniProt P41595, whole entry, species assumed: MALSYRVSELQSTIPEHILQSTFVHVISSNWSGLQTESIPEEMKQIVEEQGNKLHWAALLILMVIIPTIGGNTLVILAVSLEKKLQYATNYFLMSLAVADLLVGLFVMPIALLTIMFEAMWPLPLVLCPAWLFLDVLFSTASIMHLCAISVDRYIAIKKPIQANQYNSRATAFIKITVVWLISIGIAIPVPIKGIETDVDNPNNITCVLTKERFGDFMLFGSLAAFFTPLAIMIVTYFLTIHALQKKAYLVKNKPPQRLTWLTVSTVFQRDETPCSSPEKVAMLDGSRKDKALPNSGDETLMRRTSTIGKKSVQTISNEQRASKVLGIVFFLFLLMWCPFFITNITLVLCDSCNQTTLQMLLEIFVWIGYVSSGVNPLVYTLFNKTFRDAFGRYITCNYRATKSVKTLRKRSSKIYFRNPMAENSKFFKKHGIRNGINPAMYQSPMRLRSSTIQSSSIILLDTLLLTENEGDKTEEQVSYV
UniProt P08908, whole entry, species assumed: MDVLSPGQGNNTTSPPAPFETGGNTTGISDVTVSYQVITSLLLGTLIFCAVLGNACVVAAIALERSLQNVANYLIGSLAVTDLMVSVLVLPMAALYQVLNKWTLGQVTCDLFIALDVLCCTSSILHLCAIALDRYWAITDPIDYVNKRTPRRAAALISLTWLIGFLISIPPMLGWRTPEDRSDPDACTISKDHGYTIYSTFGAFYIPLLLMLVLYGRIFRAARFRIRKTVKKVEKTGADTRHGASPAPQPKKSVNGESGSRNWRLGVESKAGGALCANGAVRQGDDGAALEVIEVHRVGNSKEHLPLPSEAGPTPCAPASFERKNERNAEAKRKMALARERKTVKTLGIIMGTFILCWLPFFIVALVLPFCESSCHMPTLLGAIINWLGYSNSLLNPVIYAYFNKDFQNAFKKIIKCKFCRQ

What was measured:
5-HT2A [1] = molecular target: T1, 5-HT2A (Homo sapiens, UniProt P28223); assay: FLIPR Ca2+ flux agonist assay at 5-HT2A; assay type: cell-based; design: host or cells: HEK293; settings: for 5-HT2A % Act @ Max Dose: Ca2+ flux, HEK293, max dose
5-HT2B = molecular target: T2, 5-HT2B (Homo sapiens, UniProt P41595); assay: FLIPR Ca2+ flux agonist assay at 5-HT2B; assay type: cell-based; settings: for 5-HT2B % Act @ Max Dose: HEK293, max dose
T2 construct: host or cells: HEK293

5-HT2A [2] = molecular target: T1, 5-HT2A; assay: 5-HT2A receptor radioligand binding ([3H]ketanserin)
Description: The binding affinities of disclosed compounds at the ketanserin binding site of the 5-HT2A receptor were determined in radioligand binding experiments.
Method. Affinity of the test compounds for the 5-HT2A receptor was determined in radioligand binding experiments with [^3H]ketanserin by WuXi AppTec (Hong Kong) Limited, using methods adapted from the literature and under conditions described in Table 4.

5-HT1A = molecular target: T3, 5-HT1A (Homo sapiens, UniProt P08908); assay: FLIPR Ca2+ flux agonist assay at 5-HT1A; assay type: cell-based; settings: for 5-HT1A % Act @ Max Dose: Ca2+ flux, CHO cells
T3 construct: host or cells: CHO cells

[3] = tested on: monoamine oxidase A and B (MAO-A and MAO-B); assay: Stability in the presence of monoamine oxidases (human liver mitochondria preparation); design: dose or concentration left out as unconfirmed; settings: pH 7.4
Description: Liver Mitochondria Incubations. Human liver mitochondria (Xenotech H0610.M) were used.

| SMILES | pEC50 (5-HT2A [1]) | 5-HT2A % Act @ Max Dose (5-HT2A [1]) [%] | 5-HT2B % Act @ Max Dose (5-HT2B; Ca2+ flux) [%] | pKi (5-HT2A [2]) | pEC50 (5-HT2B) | agonism at 5-HT2B (in words) (5-HT2B; Ca2+ flux) | pEC50 (5-HT1A) | 5-HT1A % Act @ Max Dose (5-HT1A) [%] | microsomal CLint [3] [µL/min/mg] |
| --- | --- | --- | --- | --- | --- | --- | --- | --- | --- |
| CCCNCCc1c[nH]c2cccc(O)c12 [Compound 3, 3-(2-(propylamino)ethyl)-1H-indol-4-ol] | 7.53 | 90.1 | 1.06 | 6.00 | – | – | – | – | – |
| CC(C)NCCc1c[nH]c2cccc(O)c12 [Compound 6, 3-(2-(isopropylamino)ethyl)-1H-indol-4-ol] | 7.65 | 83.8 | 21.48 | – | 6.00 | partial agonism at 5-HT2B | – | – | – |
| CCNCCc1c[nH]c2cccc(O)c12 [Compound 5, 3-(2-(ethylamino)ethyl)-1H-indol-4-ol] | 7.85 | 107.9 | 18.58 | – | 6.56 | – | 4.57 | 38.71 | – |
| C=CCNCCc1c[nH]c2cccc(O)c12 [Compound 23, 3-(2-(allylamino)ethyl)-1H-indol-4-ol] | 7.80 | 85.46 | 47.88 | – | 7.05 | – | < 4.00 | 9.13 | < 15.9 |
| CNCCc1c[nH]c2cccc(O)c12 [Compound 2, 3-(2-(methylamino)ethyl)-1H-indol-4-ol] | 7.80 | 89.4 | 1.79 | – | – | – | 4.64 | 64.8 | – |
